## Binding of CDR-mutated scFvs to a peptide of the spike HR2 region

Target: peptide PDVDLGDISGINAS, taken from heptad repeat 2 (HR2) of SARS-CoV-2 spike.

The variants keep the light chain, the linker and the frameworks of Ab-14 (scFv order VH, a 15-residue (Gly4Ser)3 linker, VL).
VH: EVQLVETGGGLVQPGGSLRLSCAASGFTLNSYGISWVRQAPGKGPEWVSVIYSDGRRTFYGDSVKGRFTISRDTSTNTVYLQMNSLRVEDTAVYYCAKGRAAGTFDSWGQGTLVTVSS
VL: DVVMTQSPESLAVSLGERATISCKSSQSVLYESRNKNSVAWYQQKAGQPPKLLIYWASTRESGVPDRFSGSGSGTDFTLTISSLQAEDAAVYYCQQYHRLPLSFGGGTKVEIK

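The parent was found by panning a naive human phage display library on the peptide. These sequences belong to a second round, designed from the earlier measurements on random variants of the parent. Their group label is 14H_GP_Gibbs (GP: Gaussian process model; Gibbs: Gibbs sampling; a sequence that several methods proposed may carry one label only). The assay is AlphaSeq: two haploid yeast populations carry antibody and antigen on their surface. Binding brings cells together so that they mate, and sequencing counts the barcode pairs among the diploids. Each replicate has its own calibration line, from reference interactions of the BCL2 family. Each pool was mated in six replicate cultures.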

Positions count from residue 1 of the parent VH; T28E puts E in place of T.
Numbers give log10(Kd / nM), so 0 is 1 nM and 3 is 1 µM. Smaller is tighter.
"n.d." marks a missing value. The strain was present, yet no cells mated with the target were sequenced in that replicate, which points to weak or no binding.
The authors averaged sequences with at least three values out of six and counted those with two or fewer as poor binders.

{"changes": "T28E+R100S+S107L", "log10 Kd, replicates": "n.d. / 1.77 / 2.56 / 1.76 / 1.21 / 2.59", "empty controls": "0/18"}
{"changes": "T28S+G61R+S63A+R100K+A101T", "log10 Kd, replicates": "n.d. / 1.16 / 1.33 / 1.55 / 2.72 / 1.25", "empty controls": "0/18"}
{"changes": "T28Q+S31E+G61S+A101Q", "log10 Kd, replicates": "0.09 / 0.55 / 0.16 / -0.47 / 0.19 / 0.11", "empty controls": "0/18"}
{"changes": "T28D+S31W+G61A+A101T", "log10 Kd, replicates": "0.58 / 0.17 / 0.23 / 0.36 / 0.34 / 0.49", "empty controls": "1/18 (3.95)"}
{"changes": "T28W+S31E+G61V+A101Q", "log10 Kd, replicates": "1.16 / n.d. / 0.51 / 2.43 / n.d. / 1.62", "empty controls": "0/18"}
{"changes": "T28W+S31E+F59Y+A101T", "log10 Kd, replicates": "0.74 / 1.25 / 1.07 / 0.59 / 0.83 / 0.89", "empty controls": "0/18"}
{"changes": "T28Q+F59M+G61Q+R100Q", "log10 Kd, replicates": "n.d. / n.d. / 1.81 / n.d. / 0.97 / n.d.", "empty controls": "0/18"}
{"changes": "T28E+S31E+R100H+S107F", "log10 Kd, replicates": "0.92 / 0.37 / n.d. / 0.89 / 1.82 / n.d.", "empty controls": "0/18"}
{"changes": "G26Q+T28S+G61A+R100N+A101V", "log10 Kd, replicates": "0.68 / 0.22 / 0.22 / 0.03 / -0.01 / 0.32", "empty controls": "1/18 (2.46)"}
{"changes": "T28S+S31E+S63A+A101T+D106W", "log10 Kd, replicates": "n.d. / n.d. / n.d. / n.d. / n.d. / n.d.", "empty controls": "0/18"}
{"changes": "T28E+S31E+R100Q+A101T+S107L", "log10 Kd, replicates": "1.38 / -1.12 / -0.22 / 0.56 / 1.26 / 0.88", "empty controls": "0/18"}
{"changes": "T28S+S63K+A101T+D106W", "log10 Kd, replicates": "n.d. / n.d. / n.d. / n.d. / n.d. / n.d.", "empty controls": "0/18"}
{"changes": "T28S+S63A+A101Q", "log10 Kd, replicates": "1.04 / 1.00 / 0.82 / 1.34 / 1.28 / 1.54", "empty controls": "0/18"}
{"changes": "T28S+S31E+R100N+S107Q", "log10 Kd, replicates": "-1.52 / -1.39 / -1.45 / -2.39 / -2.61 / -1.49", "empty controls": "0/18"}
{"changes": "G26K+T28S+R56K+G61S+A101Q", "log10 Kd, replicates": "n.d. / n.d. / n.d. / n.d. / n.d. / n.d.", "empty controls": "0/18"}
{"changes": "R56Q+R100W+A101V+S107L", "log10 Kd, replicates": "0.98 / 1.14 / 0.79 / 0.42 / 0.97 / 0.63", "empty controls": "0/18"}
{"changes": "T28Q+S31E+G61S+S63Q+R100Q", "log10 Kd, replicates": "0.96 / 1.37 / 0.59 / 0.45 / 0.71 / 0.61", "empty controls": "1/18 (2.57)"}
{"changes": "R100K+A101M+S107T", "log10 Kd, replicates": "1.36 / 0.87 / 1.04 / 1.56 / 1.47 / 1.93", "empty controls": "0/18"}
{"changes": "S31E+S63H+R100K+A101T", "log10 Kd, replicates": "1.27 / 0.48 / 0.38 / 0.70 / 0.11 / 0.58", "empty controls": "0/18"}
{"changes": "T28S+G61H+R100K+A101E", "log10 Kd, replicates": "0.65 / 0.35 / 0.83 / 0.35 / 1.29 / 0.76", "empty controls": "0/18"}
{"changes": "T28S+F59M+G61D+A101Q", "log10 Kd, replicates": "1.09 / 1.81 / 1.68 / 2.18 / 2.77 / 1.70", "empty controls": "2/18 (2.71)"}
{"changes": "G26K+T28Q+S31E+G61Q", "log10 Kd, replicates": "n.d. / n.d. / n.d. / n.d. / n.d. / 1.96", "empty controls": "0/18"}

The first 3 entries again:

changes	log10 Kd, replicates	empty controls
T28E+R100S+S107L	n.d. / 1.77 / 2.56 / 1.76 / 1.21 / 2.59	0/18
T28S+G61R+S63A+R100K+A101T	n.d. / 1.16 / 1.33 / 1.55 / 2.72 / 1.25	0/18
T28Q+S31E+G61S+A101Q	0.09 / 0.55 / 0.16 / -0.47 / 0.19 / 0.11	0/18

The range of this assay differs from that of the first round, and the authors advise against merging the two.
As a blank, each scFv also met three strains without target: over all heavy chain designs, 1% of these pairings were detected, typically at 2.08 and seldom below 0.84. The control count says in how many pairings with the empty strains this scFv gave a signal, with their mean in brackets.
Of ten entries with the parent sequence, four were seen in most replicates (averages 0.34 to 2.37), three in one and three in none, so single entries are noisy.

Values reported by Li et al. 2023, doi:10.1038/s41467-023-39022-2 (FLAb copy).